Assay results as given in ChEMBL document CHEMBL1127769, “Synthesis of new pyrazolo[4,3-e]1,2,4-triazolo[1,5-c] pyrimidine and 1,2,3-triazolo[4,5-e]1,2,4-triazolo[1,5-c] pyrimidine displaying potent and selective activity as A2a adenosine receptor antagonists” (Bioorg Med Chem Lett, 1994).

Amino acid sequences for entries named in this document (tags omitted).
UniProt P25099, whole entry: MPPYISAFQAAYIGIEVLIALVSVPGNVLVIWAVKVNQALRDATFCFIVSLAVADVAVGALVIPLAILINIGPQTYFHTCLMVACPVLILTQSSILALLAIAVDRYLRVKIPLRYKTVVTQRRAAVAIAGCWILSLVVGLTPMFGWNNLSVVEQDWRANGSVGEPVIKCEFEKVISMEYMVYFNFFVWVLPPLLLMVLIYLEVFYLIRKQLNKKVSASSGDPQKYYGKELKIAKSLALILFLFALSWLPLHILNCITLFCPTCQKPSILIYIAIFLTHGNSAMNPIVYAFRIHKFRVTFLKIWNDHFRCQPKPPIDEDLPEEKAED

Biological target: Adenosine receptor A1 (Rattus norvegicus, UniProt P25099)
Assay: biochemical

In the case of `Nc1nc2ccc(Cl)cc2c2nc(-c3ccco3)nn12` [CGS-15943], the Ki is reported as 6.4 nM.
